US12435051B2, “Dual modulator of mGluR5 and 5-HT2A receptor, and use thereof” (Vivozon Inc., priority 2020, dated 2025)

The chains behind the UniProt entries cited, without tags or fusion partners. Residues count along the entry.
UniProt P28223, whole entry: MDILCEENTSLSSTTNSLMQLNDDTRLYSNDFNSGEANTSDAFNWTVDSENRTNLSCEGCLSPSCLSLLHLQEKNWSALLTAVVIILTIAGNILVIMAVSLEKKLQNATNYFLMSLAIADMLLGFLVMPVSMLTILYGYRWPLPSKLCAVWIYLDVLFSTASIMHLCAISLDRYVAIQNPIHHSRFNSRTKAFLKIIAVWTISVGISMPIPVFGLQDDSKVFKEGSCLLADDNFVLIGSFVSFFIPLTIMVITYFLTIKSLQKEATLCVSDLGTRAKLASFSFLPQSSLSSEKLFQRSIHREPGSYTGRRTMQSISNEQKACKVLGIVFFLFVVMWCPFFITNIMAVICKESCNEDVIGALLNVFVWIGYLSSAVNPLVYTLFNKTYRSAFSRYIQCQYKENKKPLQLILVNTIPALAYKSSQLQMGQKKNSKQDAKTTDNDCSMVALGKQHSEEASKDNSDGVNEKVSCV
UniProt P41594, 21-1212 limits assumed: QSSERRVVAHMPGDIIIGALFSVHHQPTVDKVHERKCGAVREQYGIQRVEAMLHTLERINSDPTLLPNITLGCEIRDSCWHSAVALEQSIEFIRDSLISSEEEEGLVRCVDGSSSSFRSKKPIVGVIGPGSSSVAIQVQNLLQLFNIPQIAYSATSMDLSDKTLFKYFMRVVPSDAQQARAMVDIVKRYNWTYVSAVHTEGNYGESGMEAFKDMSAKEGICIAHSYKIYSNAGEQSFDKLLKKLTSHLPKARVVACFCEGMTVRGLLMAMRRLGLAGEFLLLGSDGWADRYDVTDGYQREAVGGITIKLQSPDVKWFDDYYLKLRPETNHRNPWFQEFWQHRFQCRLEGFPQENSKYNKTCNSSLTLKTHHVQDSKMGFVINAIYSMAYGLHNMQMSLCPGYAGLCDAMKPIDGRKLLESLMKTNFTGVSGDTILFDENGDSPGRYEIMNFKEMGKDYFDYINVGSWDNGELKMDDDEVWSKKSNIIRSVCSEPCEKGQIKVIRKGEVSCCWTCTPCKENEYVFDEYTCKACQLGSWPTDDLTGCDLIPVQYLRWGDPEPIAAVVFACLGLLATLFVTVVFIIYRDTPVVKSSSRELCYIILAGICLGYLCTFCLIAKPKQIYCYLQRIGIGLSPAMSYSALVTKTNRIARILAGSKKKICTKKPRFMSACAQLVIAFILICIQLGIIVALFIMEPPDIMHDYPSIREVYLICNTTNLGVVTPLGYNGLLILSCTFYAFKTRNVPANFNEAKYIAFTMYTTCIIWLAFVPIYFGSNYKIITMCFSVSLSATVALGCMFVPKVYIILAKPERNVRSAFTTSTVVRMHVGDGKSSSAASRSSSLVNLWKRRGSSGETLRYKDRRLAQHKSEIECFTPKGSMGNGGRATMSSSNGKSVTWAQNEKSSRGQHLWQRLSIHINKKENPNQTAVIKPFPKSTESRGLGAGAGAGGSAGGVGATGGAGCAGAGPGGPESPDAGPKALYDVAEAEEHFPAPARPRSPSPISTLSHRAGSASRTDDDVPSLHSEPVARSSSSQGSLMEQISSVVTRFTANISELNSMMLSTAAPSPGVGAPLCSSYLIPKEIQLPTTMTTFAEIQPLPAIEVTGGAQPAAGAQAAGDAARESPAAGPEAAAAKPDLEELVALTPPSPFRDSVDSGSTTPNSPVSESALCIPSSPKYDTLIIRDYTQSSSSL

What was measured:
human 5-HT2AR = human 5-HT2AR (Homo sapiens, UniProt P28223); assay: HTRF-based IP1 accumulation assay (5-HT2AR antagonistic effect); conditions: read-out: Human 5-HT2AR (IC50); HEK293 cells overexpressing human 5-HT2AR; serotonin at EC80
Protocol: The 5-HT2AR antagonistic effect of the test compounds was confirmed by measuring the production amount of IP1 using the HEK293 cell line permanently overexpressing the human 5-HT2AR. The test compounds were dissolved in 100% DMSO to a final concentration of 10 mM. The starting concentration of 10 μM was prepared from the stock solution, followed by serial dilutions to prepare working solutions in a buffer containing lithium chloride (LiCl). The cells and compounds prepared in the test buffer were placed in a 96-well plate and incubated at room temperature for 10 minutes. Serotonin of EC80 concentration was added, followed by incubation at 37° C. for 30 minutes in a light-shielding state. To measure IP1 accumulation in cells, JP1-d2 acceptor and IP1-Cryptate donor-which are HTRF-based substances for fluorescence signals-were added and incubated for 1 hour at room temperature in a light-shielded state. The fluorescent emission signals of acceptor and donor were detected, and HTRF ratio values were substracted by mean value of serotonin control. The percentage of activation was calculated by normalization of the serotonin control (0%) and IP1 control (100%). The IC50 values of the test compounds are represented in Table 1. (+: 1,000-2,000 nM, ++: 500-1,000 nM, +++: 100-500 nM, ++++: less than 100 nM).

mGluR5 = mGluR5 (Homo sapiens, UniProt P41594); assay: Fluorescence-based Ca2+ mobilization assay; conditions: read-out: Human mGluR5 (IC50); HEK293 cells overexpressing mGluR5; L-glutamate at EC80
Protocol: In order to measure the activity on the mGluR5, an experiment was carried out to check the change in the intracellular Ca^2+ level using the HEK293 cell line permanently overexpressing the mGluR5. The cells in the cell culture medium were aliquoted into a 384-well plate coated with poly-D-lysine and cultured in a 37° C. incubator supplied with 5% CO2. The next day, the medium was removed and a dye loading buffer—in which a reagent capable of measuring Ca^2+ was dissolved—was added, and then incubated at 37° C. for 60 minutes. The test compounds were dissolved in 100% DMSO at a final concentration of 10 mM to make a stock solution. The starting concentration of […] was prepared from the stock solution, followed by serial dilutions to prepare working solutions (test compound working solutions). The test compound working solutions were added to the cells that were incubated in the dye loading buffer, which were maintained for 30 minutes at room temperature in a light-shielding state before measurement. The Ca^2+ level change induced by L-glutamate at EC80 concentration was measured for 2 minutes using FLIPR Tetra (MDS Analytical Technologies). […] The efficacy of the test compounds was calculated as IC50 values and represented in Table 1. […]

Structure (SMILES)	IC50 (human 5-HT2AR)	IC50 (mGluR5)
CC1(CNC(=O)c2ccc(C#Cc3ccc(F)cc3F)cc2)CCOCC1	100 to 500 nM	< 100 nM
O=C(NCC1(O)CCOCC1)c1ccc(C#Cc2ccccc2F)cc1	500 to 1000 nM	100 to 500 nM
